Measured affinities in a library of Ab-14 heavy chain variants

Source: Li et al. 2023 (doi:10.1038/s41467-023-39022-2), MIT Lincoln Laboratory and A-Alpha Bio; data file from the FLAb repository.

Antigen: PDVDLGDISGINAS, a 14-residue peptide of the SARS-CoV-2 spike HR2 region.

The variants keep the light chain, the linker and the frameworks of Ab-14 (scFv order VH, a 15-residue (Gly4Ser)3 linker, VL).
VH: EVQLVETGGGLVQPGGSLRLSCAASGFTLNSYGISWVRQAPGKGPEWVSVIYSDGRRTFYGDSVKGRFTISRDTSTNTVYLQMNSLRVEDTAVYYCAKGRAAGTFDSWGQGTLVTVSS
VL: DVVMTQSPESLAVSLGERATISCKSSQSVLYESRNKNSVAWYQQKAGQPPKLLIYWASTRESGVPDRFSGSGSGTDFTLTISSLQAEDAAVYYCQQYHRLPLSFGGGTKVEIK

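This is the validation round: designs drawn from the data on random variants, tested in the same kind of assay. Several design methods are mixed in this list. The scFvs were displayed on barcoded MATa yeast, the peptide on MATalpha yeast. Pairs that bind mate more often; barcode pairs of the diploids are counted by sequencing. A regression on co-assayed BCL2-family reference pairs converts the normalised counts of each replicate to an apparent Kd. Mating was done six times.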

The parent's heavy chain CDRs are GFTLNSYGIS, VIYSDGRRTFYGDSVK, GRAAGTFDS; each variant's own CDRs replace them letter for letter. Kd is apparent (estimated from mating counts) and averaged on the log scale over replicates with a signal. Smaller is tighter. A pair that was not seen in any replicate is written "nd"; this usually means weak binding, but a binder can also be missed. Entries are sorted by rising average, undetected variants last. In the paper, a design with two or fewer of six values counts as a poor binder.

GFDIDEYGIS, VIYADGQRTFYADSVK, GTNAGTFDV: 26 pM (6 of 6 replicates).
GFDLNEYGIS, VIYADGVRTSYSDSVK, GNVAGTFDV: 460 pM (6 of 6 replicates).
GFDLNEYGIS, VIYADGRRTGYADSVK, GNEAGTFDS: 460 pM (6 of 6 replicates).
GFDLEEYGIS, VIYADGRRTAYADSVK, GNVAGTFDQ: 480 pM (6 of 6 replicates).
GFDLNEYGIS, VIYADGVRTFYADSVK, GQTAGTFDV: 480 pM (6 of 6 replicates).
GFDLNEYGIS, VIYADGKRTAYSDSVK, GNEAGTFDQ: 530 pM (6 of 6 replicates).
GFDLNEYGIS, VIYADGRRTFYKDSVK, GEQAGTFDQ: 930 pM (6 of 6 replicates).
GFTLDSYGIS, VIYSDGMRTFYGDSVK, GRAAGTFDR: 2.6 nM (5 of 6 replicates).
GFDLNEYGIS, VIYADGQRTAYADDVK, GNQAGTFDV: 3.0 nM (6 of 6 replicates).
GFALNSYGIS, VIYSDGRRTFYDDSVK, GMEAGTFDS: 3.7 nM (6 of 6 replicates).
GFELNMYGIS, VIYSDGRRTFYGDSVK, GQTAGTFDS: 3.7 nM (6 of 6 replicates).
GFTLNSYGIS, VIYSDGRRTFYGDSVK, GTEAGTFDS: 4.1 nM (10 of 12 replicates).
KFDLNSYGIS, VIYSDGRRTFYADSVK, GKAAGTFDS: 4.1 nM (6 of 6 replicates).
GFTLNEYGIS, VIYSDGRRTFYSDSVK, GHAAGTFDS: 8.7 nM (6 of 6 replicates).
GFSLNEYGIS, VIYSDGRRTFYCDSVK, GEAAGTFDR: 17 nM (6 of 6 replicates).
GFTLNSYGIS, VIYSDGRRTFYSDQVK, GKAAGTFDS: 18 nM (6 of 6 replicates).
GFFLNDYGIS, VIYSDGRRTFYGDSVK, GNAAGTFDS: 23 nM (3 of 6 replicates).
GFWLNDYGIS, VIYSDGRRTFYQDSVK, GRQAGTFDS: 25 nM (6 of 6 replicates).
GFTLNSYGIS, VIYSDGIRTFYGDSVK, GSAAGTFDS: 44 nM (6 of 6 replicates).
GFTLNEYGIS, VIYSDGRRTFYSDSVK, GRAAGKFDS: 93 nM (1 of 6 replicates).
GFDLNEYGIS, VIYADGMRTAYSDDVK, GENAGTFDV: 120 nM (1 of 6 replicates).
GFDLGEYGVS, VIYADGHRAAYSDNVK, GAESGSVQT: 5.6 µM (1 of 6 replicates).
GFTLDSYGIS, VIYSDGRRTFYGDQVK, GRTAGTFDK: nd (0 of 6 replicates).
GFNLNSYGIS, VIYSDGRRTFYGDNVK, GRTAGTFDS: nd (0 of 6 replicates).
GFSLNWYGIS, VIYSDGRRTFYGDSVK, GRAAVTFDQ: nd (0 of 6 replicates).
GFDLNSYGIS, VIYSDGRITFYGASVK, GRGAGWFNS: nd (0 of 6 replicates).
GFTLNSYGIS, VIYSDGRRTFYGDNYK, GKAAGTFDS: nd (0 of 6 replicates).
GKDLEEYGIS, VIYADGFRTAYKNQVK, GSGMIDTVV: nd (0 of 6 replicates).
GFTYNEYGIS, VIYSDGRRTFYGDSRK, GRAAVTFDQ: nd (0 of 6 replicates).
GFTLNSYGIS, VIYSDGRRCIYGDSVK, GRAAGTFDS: nd (0 of 6 replicates).

The first 4 variants above that were never detected:

The variant GFTLDSYGIS, VIYSDGRRTFYGDQVK, GRTAGTFDK showed nd (0 of 6 replicates).
The variant GFNLNSYGIS, VIYSDGRRTFYGDNVK, GRTAGTFDS showed nd (0 of 6 replicates).
The variant GFSLNWYGIS, VIYSDGRRTFYGDSVK, GRAAVTFDQ showed nd (0 of 6 replicates).
The variant GFDLNSYGIS, VIYSDGRITFYGASVK, GRGAGWFNS showed nd (0 of 6 replicates).

Values of this round are not directly comparable with the first-round values of the same sequences. A sequence that the file lists under several names has all its replicates pooled. Of ten entries with the parent sequence, four were seen in most replicates (averages 2.2 nM to 240 nM), three in one and three in none, so single entries are noisy. As a blank, each scFv also met three strains without target: over all heavy chain designs, 1% of these pairings were detected, typically at 120 nM and seldom below 7.0 nM.